Measurements published in BindingDB's records for doi:10.1073/pnas.86.24.9762 (Oregon Health Sciences University, 1989).
Where “and” joins values, the source holds several entries; their conditions need not be identical. Equal entries are not always repeated.

By UniProt entry, the sequences of proteins in these tests, tags left out.
UniProt P61169, whole entry: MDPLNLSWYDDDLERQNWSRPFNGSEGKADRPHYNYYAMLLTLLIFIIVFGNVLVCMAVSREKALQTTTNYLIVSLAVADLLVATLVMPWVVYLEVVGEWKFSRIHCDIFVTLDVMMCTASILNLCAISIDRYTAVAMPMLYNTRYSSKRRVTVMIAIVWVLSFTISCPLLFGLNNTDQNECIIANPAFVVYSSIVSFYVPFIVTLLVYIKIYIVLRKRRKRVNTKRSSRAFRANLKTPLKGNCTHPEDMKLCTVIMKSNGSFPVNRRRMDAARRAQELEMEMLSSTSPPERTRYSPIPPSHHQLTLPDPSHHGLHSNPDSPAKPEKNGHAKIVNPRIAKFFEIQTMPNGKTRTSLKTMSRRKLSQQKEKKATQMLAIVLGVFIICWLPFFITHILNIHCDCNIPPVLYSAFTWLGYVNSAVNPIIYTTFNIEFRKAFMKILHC

Target: D(2) dopamine receptor (Rattus norvegicus, UniProt P61169)

With `CN1CCN2c3ccccc3Cc3ccccc3[C@H]2C1` [MIANSERIN (+)] the Ki was 4.3 µM and 4.6 µM.
